Assay results as given in patent US10472347B2, “Aminopyrazine compounds with A2A antagonist properties” (Merck Sharp & Dohme Corp., priority 2014, dated 2019).

Molecular target: human A2a receptor (Homo sapiens, UniProt P29274)
Assay: A2a competition binding assay, Scintillation Proximity technology
Details: membranes from HEK293 cells expressing human A2a receptor
Experimental: Binding affinities of compounds of the invention for the human A2a receptor were determined in a competition binding assay using Scintillation Proximity technology. Thus, […] from HEK293 cells expressing the human A2a receptor were incubated with a compound of the invention at concentrations ranging from 3000 nM to 0.15 nM in a reaction mixture containing also 0.5 nM of a tritiated form of 5-amino-7-[2-phenethyl]-2-(furan-2-yl)-7H-pyrazolo[4,3-e][1,2,4]triazolo[1,5-c]pyrimidine (the tritiated compound) and 100 μg of wheat germ agglutin-coated yttrium silicate SPA beads for one hour at room temperature with agitation. The beads were then allowed to settle to the bottom of the wells for 1 hr, after which the membrane-associated radioactivity was determined by scintillation counting in a TopCount microplate reader. Ki values were determined using the Cheng-Prusoff equation.
HEK293 cells expressing the human, rat, dog or monkey adenosine 2a receptor (Purchased from Perkin-Elmer # RBHA2AM400UA).
The Tritiated compound was prepared in-house by MRL Radiochemistry according to published methods.
Wheat germ agglutinin-coated yttrium silicate SPA beads (GE Healthcare #RPNQ0023). Dilute to 25 mg/ml in assay buffer. […]
A curve fitting program (i.e., Prism, Activity Base, Chemcart) is used to determine the EC50. The Ki value is calculated using the Cheng-Prusoff equation. […]

Row | Compound | EC50 (read-out: A2a EC50, 0.5 nM tritiated ligand) | Ki (read-out: A2a Ki, Ki by Cheng-Prusoff equation)
1 | Cc1nc(C(=O)NC2CCc3cccnc32)c(N)nc1-c1ncco1 (centres unmarked) | 1.4 nM | 
2 | COC(=O)c1nc(Cl)c(-n2cccn2)nc1N |  | 1910 nM
